Chains of the proteins cited; added tags and fusions are not shown. Lines headed by an entry give the natural chain unless they say otherwise; changes in a name come on top.
UniProt P48730: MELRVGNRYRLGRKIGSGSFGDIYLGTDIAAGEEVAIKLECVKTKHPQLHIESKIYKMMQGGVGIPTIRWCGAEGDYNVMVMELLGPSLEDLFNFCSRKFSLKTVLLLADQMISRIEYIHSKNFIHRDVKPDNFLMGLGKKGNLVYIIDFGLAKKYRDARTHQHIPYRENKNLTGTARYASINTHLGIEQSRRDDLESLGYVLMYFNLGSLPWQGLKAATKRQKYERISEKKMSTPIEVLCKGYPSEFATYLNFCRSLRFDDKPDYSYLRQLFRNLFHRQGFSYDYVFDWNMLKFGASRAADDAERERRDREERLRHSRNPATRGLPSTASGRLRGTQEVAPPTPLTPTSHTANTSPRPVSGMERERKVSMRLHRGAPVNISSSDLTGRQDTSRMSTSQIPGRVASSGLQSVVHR

According to ChEMBL document CHEMBL5335866, “Structure-Based Optimization of Selective and Brain Penetrant CK1δ Inhibitors for the Treatment of Circadian Disruptions” (ACS Med Chem Lett, 2024):

Target: Casein kinase I isoform delta (Homo sapiens, UniProt P48730)
Test: Displacement of kinase tracer 8 from NanoLuc-tagged CK1 delta (unknown origin) transfected in CHO cells by BRET assay
Format: cell-based

CC1(C)Cn2nc(-c3ccc(F)cn3)c(-c3ccnc4[nH]ncc34)c2CO1
IC50: 62 nM
